Measurements as given in ChEMBL document CHEMBL1152107, “Structure-activity relationships study at the 3-N position of paclitaxel-part 1: Synthesis and biological evaluation of the 3-(t)-butylaminocarbonyloxy bearing paclitaxel analogs” (Bioorg Med Chem Lett, 1997).

Sequences of proteins named here, by UniProt entry; tags and fusion partners are left off.
UniProt P02550, whole entry, looked up: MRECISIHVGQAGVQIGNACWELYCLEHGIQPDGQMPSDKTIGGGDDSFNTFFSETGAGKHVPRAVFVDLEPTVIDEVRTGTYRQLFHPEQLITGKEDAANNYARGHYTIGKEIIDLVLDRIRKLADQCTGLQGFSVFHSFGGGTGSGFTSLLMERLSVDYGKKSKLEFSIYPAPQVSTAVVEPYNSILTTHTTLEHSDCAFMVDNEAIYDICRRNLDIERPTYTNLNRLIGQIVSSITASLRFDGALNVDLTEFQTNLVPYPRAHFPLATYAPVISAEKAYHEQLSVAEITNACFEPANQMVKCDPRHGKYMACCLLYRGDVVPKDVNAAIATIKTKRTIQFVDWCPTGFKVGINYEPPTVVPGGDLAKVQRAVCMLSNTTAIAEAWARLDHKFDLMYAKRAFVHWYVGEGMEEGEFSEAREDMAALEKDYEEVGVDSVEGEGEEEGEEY

Molecular target: Tubulin alpha chain (Sus scrofa) (UniProt P02550)
Assay: The compound was evaluated in vitro in a tubulin polymerization assay, activity expressed as potency of compound relative to Paclitaxel.
Assay type: functional

Ratio: 1
Structure (SMILES): CC(=O)O[C@H]1C(=O)[C@@]2(C)[C@H]([C@H](OC(=O)c3ccccc3)[C@]3(O)C[C@H](OC(=O)[C@H](O)[C@@H](NC(=O)c4ccccc4)c4ccccc4)C(C)=C1C3(C)C)[C@]1(OC(C)=O)CO[C@@H]1C[C@@H]2O [PACLITAXEL]
